Tested on: Nb2-SFJCD1 rat lymphoma cells
Experiment: Culture growth inhibition assay in Nb2-SFJCD1 lymphoma cultures
Conditions: cystine at ca. 3-fold elevated levels (FIG. 5)

O=C([O-])c1ccccc1O.[Na+] [Salicylate, sodium, sodium salicylate]
Change of growth-inhibitory effect by elevated cystine: only marginally affected
